One data set has as its system rice plants. The experiment in a line: Experiment 1: phytotoxicity to rice plants (pot test, emulsifiable concentrate). The conditions noted are these: 25 days.
The test system of data set [1] is barnyard grass (Echinochloa crus-galli). The experiment in a line: Experiment 1: herbicidal effects against barnyard grass (pot test, emulsifiable concentrate). It is filed as in vivo. The conditions noted are these: 25 days.
[2] abbreviates: 1.5 leaf-stage of barnyard grass, 150 g/10a.
[3] abbreviates: 1.5 leaf-stage of barnyard grass, 300 g/10a.
Where [4] appears, read: 1.5 leaf-stage of barnyard grass, 600 g/10a.
Setting [5] is: 3 leaf-stage of barnyard grass, 150 g/10a.
[6] abbreviates: 3 leaf-stage of barnyard grass, 300 g/10a.
Setting [7] is: 3 leaf-stage of barnyard grass, 600 g/10a.

Consider `CC1CCCCN1C(=O)SCCCl` (stereo not drawn), for which the “phytotoxicity (rice plant)” value is 0 (less than 10%) in the data set on rice plants (setting [2]); 0 (less than 10%) with rice plants (setting [3]); 2 (30 to 49%) in the data set on rice plants (setting [4]); 0 (less than 10%) in the data set with rice plants (setting [5]); 0 (less than 10%) in the data set on rice plants (setting [6]); 1 (10 to 29%) with rice plants (setting [7]). Besides, the “herbicidal activity (barnyard grass)” value in data set [1] (setting [2]) is 3 (50 to 69%); in data set [1] (setting [3]), 4 (70 to 89%); in data set [1] (setting [4]), 5 (more than 90%); in data set [1] (setting [5]) it was 1 (10 to 29%); in data set [1] (setting [6]) it was 3 (50 to 69%); in data set [1] (setting [7]), 3 (50 to 69%).
